Amino acid sequences for entries named in this document (tags omitted).
UniProt P32245, whole entry: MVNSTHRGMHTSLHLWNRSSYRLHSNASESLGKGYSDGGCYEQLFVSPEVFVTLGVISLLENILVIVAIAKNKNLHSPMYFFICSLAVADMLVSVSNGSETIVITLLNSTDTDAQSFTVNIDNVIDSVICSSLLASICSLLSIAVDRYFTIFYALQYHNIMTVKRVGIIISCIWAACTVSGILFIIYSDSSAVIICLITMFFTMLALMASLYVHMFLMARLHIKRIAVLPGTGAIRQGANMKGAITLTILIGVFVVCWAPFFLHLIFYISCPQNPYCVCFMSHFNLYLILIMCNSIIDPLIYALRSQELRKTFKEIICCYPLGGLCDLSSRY

This test concerns the target MC4 (Homo sapiens, UniProt P32245). Particulars: read-out: MC4 Ki.
The Ki is a dissociation constant, usually derived from enzyme kinetics or from competition with a known ligand. Take `CC(=O)N[C@@H](Cc1ccc(O)cc1)C(=O)N[C@@H](CCCNC(=N)N)C(=O)N[C@H]1CSSC[C@@H](C(N)=O)NC(=O)[C@H](Cc2c[nH]c3ccccc23)NC(=O)[C@H](CCCNC(=N)N)NC(=O)[C@@H](Cc2ccccc2)NC(=O)[C@H](Cc2c[nH]cn2)NC(=O)[C@H](Cc2ccc(O)cc2)NC1=O` [Compound No. 24, Ac-Tyr-Arg-cyclo[Cys-Tyr-His-D-Phe-Arg-Trp-Cys]-NH2]: the Ki was determined as 0.44 nM. On to `CC(=O)N[C@@H](CCCNC(=N)N)C(=O)N[C@H]1CSSC[C@@H](C(N)=O)NC(=O)[C@H](Cc2c[nH]c3ccccc23)NC(=O)[C@H](CCCNC(=N)N)NC(=O)[C@@H](Cc2ccccc2)NC(=O)[C@H](Cc2c[nH]cn2)NC(=O)[C@H](CS(=O)(=O)O)NC1=O` [Compound No. 26, Ac-Arg-cyclo[Cys-Cya-His-D-Phe-Arg-Trp-Cys]-NH2], for which the Ki turned out to be 0.71 nM. Turning to `CC(=O)N[C@H](CCCNC(=N)N)C(=O)N[C@H]1CSSC[C@@H](C(N)=O)NC(=O)[C@H](Cc2c[nH]c3ccccc23)NC(=O)[C@H](CCCNC(=N)N)NC(=O)[C@@H](Cc2ccccc2)NC(=O)[C@H](Cc2c[nH]cn2)NC(=O)[C@H](CS(=O)(=O)O)NC1=O` [Compound No. 27, Ac-D-Arg-cyclo[Cys-Cya-His-D-Phe-Arg-Trp-Cys]-NH2], the Ki was 1.05 nM. Regarding `CC(=O)N[C@@H](Cc1ccc(O)cc1)C(=O)N[C@@H](CCCNC(=N)N)C(=O)N[C@H]1CSSC[C@@H](C(N)=O)NC(=O)[C@H](Cc2c[nH]c3ccccc23)NC(=O)[C@H](CCCNC(=N)N)NC(=O)[C@@H](Cc2ccccc2)NC(=O)[C@H](Cc2c[nH]cn2)NC(=O)[C@H](CS(=O)(=O)O)NC1=O` [Compound No. 28, Ac-Tyr-Arg-cyclo[Cys-Cya-His-D-Phe-Arg-Trp-Cys]-NH2], the inhibition constant Ki was found to be 1.18 nM. In the case of `CC(=O)N[C@H]1CSSC[C@@H](C(=O)N[C@@H](CCCCN)C(=O)N2CCC[C@H]2C(N)=O)NC(=O)[C@H](Cc2c[nH]c3ccccc23)NC(=O)[C@H](CCCNC(=N)N)NC(=O)[C@@H](Cc2ccccc2)NC(=O)[C@H](Cc2c[nH]cn2)NC(=O)[C@H](CCC(=O)O)NC1=O` [Compound No. 35, Ac-cyclo[Cys-Glu-His-D-Phe-Arg-Trp-Cys]-Lys-Pro-NH2], the Ki was found to be 1.03 nM. Turning to `CC(=O)N[C@H]1CSSC[C@@H](C(=O)N[C@@H](CO)C(=O)N2CCC[C@H]2C(N)=O)NC(=O)[C@H](Cc2c[nH]c3ccccc23)NC(=O)[C@H](CCCNC(=N)N)NC(=O)[C@@H](Cc2ccccc2)NC(=O)[C@H](Cc2c[nH]cn2)NC(=O)[C@H](CCC(=O)O)NC1=O` [Compound No. 36, Ac-cyclo[Cys-Glu-His-D-Phe-Arg-Trp-Cys]-Ser-Pro-NH2], the Ki worked out at 1.66 nM. As for `N=C(N)NCCC[C@@H]1NC(=O)[C@@H](Cc2ccccc2)NC(=O)[C@H](Cc2c[nH]cn2)NC(=O)[C@H](CCC(=O)O)NC(=O)[C@@H](NC(=O)[C@@H](N)CCCNC(=N)N)CSSC[C@@H](C(=O)O)NC(=O)[C@H](Cc2c[nH]c3ccccc23)NC1=O` [Compound No. 45, Arg-cyclo[Cys-Glu-His-D-Phe-Arg-Trp-Cys]-OH], the Ki was determined as 3.03 nM.

In the case of `N=C(N)NCCC[C@@H](N)C(=O)N[C@H]1CSSC[C@@H](C(N)=O)NC(=O)[C@H](Cc2c[nH]c3ccccc23)NC(=O)[C@H](CCCNC(=N)N)NC(=O)[C@@H](Cc2ccccc2)NC(=O)[C@H](Cc2c[nH]cn2)NC(=O)[C@H](CCC(=O)O)NC1=O` [Compound No. 46, D-Arg-cyclo[Cys-Glu-His-D-Phe-Arg-Trp-Cys]-NH2], the Ki is 0.73 nM. Take `CC(=O)N[C@H](CCCNC(=N)N)C(=O)N[C@H]1CSSC[C@@H](C(N)=O)NC(=O)[C@H](Cc2c[nH]c3ccccc23)NC(=O)[C@H](CCCNC(=N)N)NC(=O)[C@H](Cc2ccccc2)NC(=O)[C@H](Cc2c[nH]cn2)NC(=O)[C@H](CCC(=O)O)NC1=O` [Compound No. 47, Ac-D-Arg-cyclo[Cys-Glu-His-Phe-Arg-Trp-Cys]-NH2]: the Ki stood at 53.3 nM. On to `CC(=O)N[C@@H](CCCNC(=N)N)C(=O)N[C@H]1CSSC[C@@H](C(N)=O)NC(=O)[C@H](Cc2c[nH]c3ccccc23)NC(=O)[C@H](CCCNC(=N)N)NC(=O)[C@@H](Cc2ccccc2)NC(=O)[C@H](Cc2c[nH]cn2)NC(=O)[C@H](CCC(=O)O)NC1=O` [Compound No. 48, Ac-Arg-cyclo[Cys-Glu-His-D-Phe-Arg-Trp-Cys]-NH2], for which the Ki worked out at 0.43 nM.

For `CC(=O)N[C@@H](CCCNC(=N)N)C(=O)N[C@H]1CSSC[C@@H](C(=O)O)NC(=O)[C@H](Cc2c[nH]c3ccccc23)NC(=O)[C@H](CCCNC(=N)N)NC(=O)[C@@H](Cc2ccccc2)NC(=O)[C@H](Cc2c[nH]cn2)NC(=O)[C@H](CCC(=O)O)NC1=O` [Compound No. 49, Ac-Arg-cyclo[Cys-Glu-His-D-Phe-Arg-Trp-Cys]-OH], the Ki was 3.14 nM. `CC(=O)N[C@@H](CCCNC(=N)N)C(=O)N[C@H]1CSSC[C@@H](C(N)=O)NC(=O)[C@H](Cc2c[nH]c3ccccc23)NC(=O)[C@H](CCCNC(=N)N)NC(=O)[C@@H](Cc2ccc(Cl)cc2)NC(=O)[C@H](Cc2c[nH]cn2)NC(=O)[C@H](CCC(=O)O)NC1=O` [Compound No. 50, Ac-Arg-cyclo[Cys-Glu-His-(4-Cl-D-Phe)-Arg-Trp-Cys]-NH2]: the Ki was determined as 0.21 nM. On to `CC(=O)N[C@@H](CCCNC(=N)N)C(=O)N[C@H]1CSSC[C@@H](C(N)=O)NC(=O)[C@H](Cc2c[nH]c3ccccc23)NC(=O)[C@H](CCCNC(=N)N)NC(=O)[C@@H](Cc2ccccc2)NC(=O)[C@H](Cc2cn(C)cn2)NC(=O)[C@H](CCC(=O)O)NC1=O` [Compound No. 51, Ac-Arg-cyclo[Cys-Glu-(1-Me-His)-D-Phe-Arg-Trp-Cys]-NH2], for which the Ki amounted to 6.52 nM. Then `CC(=O)N[C@H](CCCNC(=N)N)C(=O)N[C@H]1CSSC[C@@H](C(N)=O)NC(=O)[C@H](Cc2c[nH]c3ccccc23)NC(=O)[C@H](CCCNC(=N)N)NC(=O)[C@@H](Cc2ccccc2)NC(=O)[C@H](Cc2c[nH]cn2)NC(=O)[C@H](CCC(=O)O)NC1=O` [Compound No. 52, Ac-D-Arg-cyclo[Cys-Glu-His-D-Phe-Arg-Trp-Cys]-NH2], with 0.55 nM; and `CC(=O)N[C@H](CCCNC(=N)N)C(=O)N[C@H]1CSSC[C@@H](C(=O)O)NC(=O)[C@H](Cc2c[nH]c3ccccc23)NC(=O)[C@H](CCCNC(=N)N)NC(=O)[C@@H](Cc2ccccc2)NC(=O)[C@H](Cc2c[nH]cn2)NC(=O)[C@H](CCC(=O)O)NC1=O` [Compound No. 53, Ac-D-Arg-cyclo[Cys-Glu-His-D-Phe-Arg-Trp-Cys]-OH], with 8.68 nM; and `CC(=O)N[C@@H](CCCCNC(=N)N)C(=O)N[C@H]1CSSC[C@@H](C(N)=O)NC(=O)[C@H](Cc2c[nH]c3ccccc23)NC(=O)[C@H](CCCNC(=N)N)NC(=O)[C@@H](Cc2ccccc2)NC(=O)[C@H](Cc2c[nH]cn2)NC(=O)[C@H](CCC(=O)O)NC1=O` [Compound No. 54, Ac-hArg-cyclo[Cys-Glu-His-D-Phe-Arg-Trp-Cys]-NH2], with 0.48 nM. Turning to `CC(=O)N[C@@H](CCCNC(N)=O)C(=O)N[C@H]1CSSC[C@@H](C(N)=O)NC(=O)[C@H](Cc2c[nH]c3ccccc23)NC(=O)[C@H](CCCNC(=N)N)NC(=O)[C@@H](Cc2ccccc2)NC(=O)[C@H](Cc2c[nH]cn2)NC(=O)[C@H](CCC(=O)O)NC1=O` [Compound No. 55, Ac-Cit-cyclo[Cys-Glu-His-D-Phe-Arg-Trp-Cys]-NH2], the Ki stood at 1.67 nM.
